{
  "source": "patent US4757079A",
  "about": "“Anti-hypertensive piperidine compounds” (Dynamac Corporaton, priority 1986, dated 1988)",
  "system": "release of acetylcholine",
  "conditions": "17.5 mg/L; in the presence of DFP; stimulation at 1 Hz",
  "note": "Where a name gives a salt, the structure may show the parent alone.",
  "data": [
    {"smiles": "CN1CCC(/C=C/c2cccc3ccccc23)CC1", "note": "[B-120, 1-methyl-4-(1-naphthylvinyl)piperidine hydrochloride]", "values": [
      {"measurement": "release of acetylcholine normally elicited by stimulation", "value": "completely blocked"}
    ]}
  ]
}
